Laboratory results as given in patent publication US20210355225A1 (OSE IMMUNOTHERAPEUTICS, published 2021).
Values belong to the binder of their own block, whether it stands above or below them.

Legend:
[1] = molecular target: T1, human PD-L2 recombinant protein (Sinobiological, 10292-H08H-B) (human, UniProt Q9BQ51 20-219); experiment: Biacore: human PD-L2 immobilised on the chip, recombinant human PD-1 at 100 nM, no antibody
T1 construct: also called Human recombinant PD-L2
T1 sequence (looked up): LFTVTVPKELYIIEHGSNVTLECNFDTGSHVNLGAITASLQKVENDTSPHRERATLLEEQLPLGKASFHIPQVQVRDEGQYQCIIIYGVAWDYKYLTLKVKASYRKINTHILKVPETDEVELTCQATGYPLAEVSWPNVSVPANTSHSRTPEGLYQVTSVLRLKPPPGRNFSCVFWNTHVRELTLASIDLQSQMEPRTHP

[2] = molecular target: T2, PD-L2 (Sinobiological, #10292-H02H) (UniProt Q9BQ51 20-219); experiment: Competition ELISA: PD-L2 immobilised at 2 ug/mL, biotinylated human PD1 at 0.66 ug/ml, peroxidase-labelled streptavidin, DO 450 nm
T2 sequence (looked up): T1 sequence (looked up)

- binding result [1]: binds
B1: Recombinant hPD1-His (Sino Biologicals, reference […]-H08H) (receptor, human, UniProt Q15116 25-167, looked up)
chain: LDSPDRPWNPPTFSPALLVVTEGDNATFTCSFSNTSESFVLNWYRMSPSNQTDKLAAFPEDRSQPGQDCRFRVTQLPNGRDFHMSVVRARRNDSGTYLCGAISLAPKAQIKESLRAELRVTERRAEVPTAHPSPSPRPAGQFQ
notes: Bought reagent; also called human PD1 recombinant protein; PD-1 recombinant protein; not shown: histidine tail

- binding result [2]: binds
B2: biotinylated Human PD1 (AcroBiosystems, reference EP-101) (Fc fusion, UniProt Q15116 25-167, looked up)
chain: B1 chain
modifications: biotinylated
notes: also called Biotin-PD-1Fc; not shown: Fc part implied by the name 'Biotin-PD-1Fc'
